Sequences of proteins named here, by UniProt entry; tags and fusion partners are left off. A change or cut given only in a name is not applied to a line headed by its entry.
UniProt P35561: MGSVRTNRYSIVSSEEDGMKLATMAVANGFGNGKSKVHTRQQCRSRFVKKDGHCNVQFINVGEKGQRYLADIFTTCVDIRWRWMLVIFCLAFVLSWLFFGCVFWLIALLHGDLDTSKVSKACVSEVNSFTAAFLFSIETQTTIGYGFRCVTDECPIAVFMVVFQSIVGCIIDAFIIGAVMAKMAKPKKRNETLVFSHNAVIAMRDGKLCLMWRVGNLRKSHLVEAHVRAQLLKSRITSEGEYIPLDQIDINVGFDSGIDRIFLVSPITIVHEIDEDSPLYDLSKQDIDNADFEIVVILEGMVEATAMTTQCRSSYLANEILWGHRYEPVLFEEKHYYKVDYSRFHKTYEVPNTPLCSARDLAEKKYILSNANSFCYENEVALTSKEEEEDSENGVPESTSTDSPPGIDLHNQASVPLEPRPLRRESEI

In US20220168325A1, “METHODS TO PROMOTE CEREBRAL BLOOD FLOW IN THE BRAIN” (THE UNIVERSITY OF VERMONT, priority 2019, published 2022):

Molecular target: Kir2.1 channels (Mus musculus, UniProt P35561)
Test: Patch-clamp recording of Kir2.1 currents in freshly isolated brain capillary endothelial cells (cECs)
Details: perforated-patch (intact cytoplasm); PIK93 300 nM, phenylarsine oxide 10 μM, UNC3230 100 nM, bath-applied

Compound: O=[As]c1ccccc1 (stereo not shown)
- Kir2.1 currents 15 min after PIP2 synthesis inhibitor: significantly suppressed Kir2.1 currents
